Measured values as given in article PMC13534584, “ATP13A4 gates extracellular polyamine levels to control excitatory synaptogenesis” (Nature Communications, 2026).

Target: T1, hATP13A4 (Homo sapiens, UniProt Q4VNC1)
T1 construct: gene ATP13A4; solubilised in DDM
T1 sequence (Q4VNC1 1-1196): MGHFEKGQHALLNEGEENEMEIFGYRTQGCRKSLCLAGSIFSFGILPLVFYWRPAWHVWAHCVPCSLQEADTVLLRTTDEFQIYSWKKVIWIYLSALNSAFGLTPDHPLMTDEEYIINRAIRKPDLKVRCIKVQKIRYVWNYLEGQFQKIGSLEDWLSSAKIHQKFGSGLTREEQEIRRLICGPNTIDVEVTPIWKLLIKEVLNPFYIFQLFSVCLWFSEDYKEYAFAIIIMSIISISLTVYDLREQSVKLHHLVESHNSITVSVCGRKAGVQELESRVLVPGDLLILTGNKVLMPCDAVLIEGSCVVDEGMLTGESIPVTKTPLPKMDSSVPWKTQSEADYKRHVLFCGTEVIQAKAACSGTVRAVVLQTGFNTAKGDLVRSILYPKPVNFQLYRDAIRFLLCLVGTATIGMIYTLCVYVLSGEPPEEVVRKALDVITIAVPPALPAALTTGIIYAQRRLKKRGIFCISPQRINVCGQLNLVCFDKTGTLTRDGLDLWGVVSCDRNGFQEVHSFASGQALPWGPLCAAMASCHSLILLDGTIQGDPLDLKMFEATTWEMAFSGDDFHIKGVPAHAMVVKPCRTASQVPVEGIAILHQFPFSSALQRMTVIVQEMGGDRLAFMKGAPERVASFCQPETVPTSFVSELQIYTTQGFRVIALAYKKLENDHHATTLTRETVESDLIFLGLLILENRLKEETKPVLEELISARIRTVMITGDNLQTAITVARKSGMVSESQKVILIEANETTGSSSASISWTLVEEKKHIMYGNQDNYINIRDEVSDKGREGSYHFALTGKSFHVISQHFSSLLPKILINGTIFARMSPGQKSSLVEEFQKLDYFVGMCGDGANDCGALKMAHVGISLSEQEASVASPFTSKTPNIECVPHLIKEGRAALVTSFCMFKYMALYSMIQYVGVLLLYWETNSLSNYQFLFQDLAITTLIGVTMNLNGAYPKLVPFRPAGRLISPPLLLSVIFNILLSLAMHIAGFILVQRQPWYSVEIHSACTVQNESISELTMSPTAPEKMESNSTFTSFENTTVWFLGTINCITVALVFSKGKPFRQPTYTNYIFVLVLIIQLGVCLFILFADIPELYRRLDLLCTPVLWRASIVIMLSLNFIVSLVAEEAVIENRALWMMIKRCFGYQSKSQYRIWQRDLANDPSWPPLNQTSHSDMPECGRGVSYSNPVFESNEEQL
Test: ADP-Glo Max ATPase assay, dose-response
Assay type: biochemical
Conditions: 5 mM ATP, 11 mM MgCl2, 100 mM KCl, MOPS-KOH pH 7, 37 °C, 0.001% DDM

NCCCCN [PUT, putrescine]
ATPase stimulation: Putrescine, spermidine, spermine, cadaverine, and acetylated polyamine derivatives each stimulated ATPase activity
